Source: patent publication US8268836B2, “Compound useful as a c-Met inhibitor” (Eli Lilly and Company, priority 2010, dated 2012)
Marks after values point to notes of the source that are not given here.

The chains behind the UniProt entries cited, without tags or fusion partners. Residues count along the entry.
UniProt P08581, 25-1390 limits assumed: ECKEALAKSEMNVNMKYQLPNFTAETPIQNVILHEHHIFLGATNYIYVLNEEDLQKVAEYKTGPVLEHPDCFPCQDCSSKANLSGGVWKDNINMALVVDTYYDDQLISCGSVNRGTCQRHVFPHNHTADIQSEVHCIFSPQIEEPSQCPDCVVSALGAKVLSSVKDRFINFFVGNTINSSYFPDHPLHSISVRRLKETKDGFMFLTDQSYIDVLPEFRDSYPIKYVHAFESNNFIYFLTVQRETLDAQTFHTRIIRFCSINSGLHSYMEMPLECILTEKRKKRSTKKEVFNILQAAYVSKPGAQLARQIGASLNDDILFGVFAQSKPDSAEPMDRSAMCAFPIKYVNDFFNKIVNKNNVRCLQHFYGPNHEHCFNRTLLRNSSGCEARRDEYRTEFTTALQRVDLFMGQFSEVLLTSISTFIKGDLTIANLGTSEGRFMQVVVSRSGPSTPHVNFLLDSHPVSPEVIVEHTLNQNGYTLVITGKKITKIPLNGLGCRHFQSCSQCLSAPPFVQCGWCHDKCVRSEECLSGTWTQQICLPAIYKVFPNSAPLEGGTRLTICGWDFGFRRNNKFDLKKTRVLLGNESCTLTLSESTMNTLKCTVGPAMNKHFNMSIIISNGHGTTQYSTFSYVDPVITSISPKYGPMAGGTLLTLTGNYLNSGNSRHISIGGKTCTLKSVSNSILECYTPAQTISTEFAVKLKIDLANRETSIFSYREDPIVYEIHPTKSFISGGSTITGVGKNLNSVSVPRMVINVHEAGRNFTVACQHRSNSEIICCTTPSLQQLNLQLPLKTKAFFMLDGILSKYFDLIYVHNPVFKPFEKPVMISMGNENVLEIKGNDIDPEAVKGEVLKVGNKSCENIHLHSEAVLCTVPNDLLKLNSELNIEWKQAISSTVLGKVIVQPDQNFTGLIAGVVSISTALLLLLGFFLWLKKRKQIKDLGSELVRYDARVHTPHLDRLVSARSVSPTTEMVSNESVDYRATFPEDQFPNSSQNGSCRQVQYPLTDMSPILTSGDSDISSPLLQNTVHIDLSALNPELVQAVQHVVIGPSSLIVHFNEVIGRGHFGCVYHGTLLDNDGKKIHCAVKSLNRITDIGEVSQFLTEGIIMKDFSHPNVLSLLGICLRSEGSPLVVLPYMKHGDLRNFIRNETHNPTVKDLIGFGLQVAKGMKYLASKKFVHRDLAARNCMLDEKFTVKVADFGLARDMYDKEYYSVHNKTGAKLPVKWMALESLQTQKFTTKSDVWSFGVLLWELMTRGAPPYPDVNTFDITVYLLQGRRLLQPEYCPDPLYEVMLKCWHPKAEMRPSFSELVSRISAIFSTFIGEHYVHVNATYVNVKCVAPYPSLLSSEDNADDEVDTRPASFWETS

Key:
[1] = target: human c-Met (phospho-c-Met in S114 tumors) (Homo sapiens, UniProt P08581); experiment: c-Met in vivo target inhibition (IVTI) assay, S114 tumors in nude mice; design: species or system mouse
Protocol: S114 cells (over-expressing both human HGF and human c-Met) are cultured in a growth media (Dulbecco's Modified Eagle Medium) supplemented with 10% fetal calf serum and expanded. Cells are harvested and washed twice with phosphate buffered saline and 2×10^6 cells are mixed with equal volume of BD Matrigel™ matrix (BD Bioscience, Franklin, N.J.), and injected subcutaneously into the flank of nude mice (athymic nude, from Harlan, Indianapolis, Ind.). At day 8 after implant, compounds (formulated in 10% acacia or 1% carboxymethylcellulose/0.5% sodium lauryl sulfate/0.05% antifoam as suspension) are administered to animals by oral gavage at 50 mg/kg. Animals are sacrificed at 2 h post dose, and tumors are harvested and stored frozen until needed.
Frozen tumors are pulverized using motar-pestel. The pulverized tissues are transferred to a tube containing Lysing Matrix D beads (MP Biomedicals, Solon, Ohio) and 600 μL lysis buffer (RIPA buffer, containing 50 mM Tris-HCl, pH 7.4, 150 mM NaCl, 1% NP-40, 0.5% sodium deoxycholate, 0.1% SDS, from Boston Bioproducts, Phosphatase Inhibitors I and II and Protease Inhibitor (Sigma, St. Louis, Mo.)). A FastPrep® Cell Disrupter (MP Biomedicals, Inc.) is used to disrupt the tissue and lyse the cells. Lysates are passed through a 20 gauge needle and transferred to a clean tube. Protein concentration is determined by Bradford method known to one of skill in the art.
Tumor lysates are loaded onto MSD® phosphor-Met ELISA plates and phosphor-c-Met level is determined using the same protocol as H460 cell-based ELISA. The S114 in vivo inhibition ED50 value for the compound of example 1 is 0.32 mg/kg with a 95% confidence interval bounded by 0.23 mg/kg and 0.41 mg/kg. The TEC50 for example 1 is 0.18 μM with a 95% confidence interval bounded by 0.13 μM and 0.23 μM.
In IVTI studies, each compound is administered orally and formulated in 10% w/v acacia. Mouse blood samples are collected with anti-coagulant (EDTA-purple top Vacutainer tube) post-dose using cardiac puncture techniques. […]

99 kinases = experiment: Cerep Express Diversity Kinase Profile screening
Source text: The Express Diversity Kinase Profile™ is a screening service developed by Cerep SA (Paris, France). Details of assay conditions and/or contact information can be found on their website http://www.cerep.fecerep/users/pages/catalog/profiles/catalog.asp).

[2] = Rat bioavailability study; settings: Example 1 dosed as mesylate salt
Protocol: In rat bioavailability studies, each compound is administered intravenously (IV) or orally (PO). Intravenous dosing is formulated in solution formulation and oral dosing is formulated in 10% w/v acacia. Rat blood samples are collected using anti-coagulant (EDTA) collection tubes and centrifugation is performed to obtain plasma samples. Aliquots of plasma are pipetted and stored immediately at <−20° C. Shipments of plasma samples are packed in dry ice if needed and samples are frozen at <−20° C. until analysis.
A stock solution of each drug is prepared and is diluted into pooled rat plasma to prepare standards. Plasma standards or samples are treated by protein precipitation or liquid-liquid extraction using organic solvent containing internal standard. The mixtures are centrifuged and aliquots of the resulting supernatant fractions are transferred. In the case of protein precipitation, supernatant is diluted and analyzed using a Mass Spectrometer coupled to a HPLC System and an autosampler. In the case of liquid-liquid-extraction, supernatant is dried under N2 at 40° C., reconstituted and analyzed using a Mass Spectrometer coupled to a HPLC System and an autosampler. Quantitation is performed using multiple reaction monitoring (MRM) and linear regression plots of compounds to internal standard peak area ratios versus drug concentrations.

What does the source list for `Cn1cc(-c2ccc3nnc(Sc4ccc5ncn(C)c5c4)n3n2)cn1`?
Single dose IVTI % inhibition after 2 h ([1]; 20 mg/Kg dose, 2 h, experiment separate from head to head study): 84**** %; % phos-Met inhibition at 8 mg/kg after 8 h ([1]; S114 tumors, oral 8 mg/kg, 8 h): −5.45%; % phos-Met inhibition at 20 mg/kg after 8 h ([1]; S114 tumors, oral 20 mg/kg, 8 h): 0.57%; Kinases inhibited in Cerep screening of 99 kinases (99 kinases): inhibited only c-Met; Cl ([2]; IV 1 mg/kg solution): 31 mL/min/kg; T½ ([2]; IV 1 mg/kg solution): 36 min; Vdss ([2]; IV 1 mg/kg solution): 0.8 L/kg; AUC ([2]; PO 10 mg/kg in 10% acacia): 794 ng·h/mL; Cmax ([2]; PO 10 mg/kg in 10% acacia): 164 ng/mL; Tmax ([2]; PO 10 mg/kg in 10% acacia): 55 min; F % (oral bioavailability) ([2]; PO 10 mg/kg vs IV 1 mg/kg): 14.6%
